Sampled rows, rich in hits. Any-hit rate of the full collection: about 0.43%.
HCMV UL50-53 inh = cytomegalovirus nuclear egress complex inhibition. HTRF UL50-UL53 interaction, normalized percent inhibition. inhibition, % (concentration not given with the values). 0.15% of 190,000 active; in the data active = inhibition above about 27%, passing the limit was not always enough
GIV Gai3 FP = GIV-Galpha-i interaction inhibition. AID 1224905. actives 0.42% (n = 210,000). percent of control (FP), % (test concentration not listed). Galpha-i3/FITC-GIV peptide fluorescence polarization, 90 min; stronger effect = lower value; scaled: aluminum fluoride 0%, vehicle 100%;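 active = replicate mean at 85% of control or lower, very high polarization wells dropped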;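 also: wells of about 15 µL received 100 nL stock; the first replicate is given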
Numbers without * were called inactive; / = not tested or not shown.

Molecule,HCMV UL50-53 inh,GIV Gai3 FP
O=C(CCc1ccccc1)NCCc1nc2ccccc2[nH]1,-47.4,/
CC(=O)c1c(C)oc2c1cc(NS(=O)(=O)c1c(C)cc(C)cc1C)c1ccccc12,/,97.0
OCC(O)CN1CCc2ccccc21 (stereo not given),7.1,102.3
N#CCc1c(C#N)c(N)nc(N2CCN(S(=O)(=O)c3ccccc3)CC2)c1C#N,21.8,/
N#CCc1c(C#N)c(N)nc(N2CCc3ccccc32)c1C#N,35.2*,/
CCOc1cc(/C=C2\SC(=S)N(CC)C2=O)cc(Cl)c1O,-19.0,-14.8*
CCOc1cccc(/C=C2\SC(=S)N(CC)C2=O)c1O,-20.7,/
O=C1S/C(=C\c2cccc(Br)c2)C(=O)N1c1ccc(O)cc1,/,105.9
Cc1cccc(CSc2nc3cccnc3n2Cc2ccccc2F)c1,-21.8,101.1
Cc1ccc(Cn2c(SCc3cccc(C)c3)nc3cccnc32)cc1,22.2*,105.9
Cc1ccc2nc3[nH]c(=O)[nH]c(=O)c3nc2c1,/,102.6
O=C(Nc1ccc2nc3c(=O)[nH]c(=O)[nH]c3nc2c1)C(F)(F)F,/,-15.9*
CC1=CC(=C2C(=O)NC(=O)NC2=O)C=C(C)N1c1ccccc1,-4.1,-4.9*
CC1=CC(=C2C(=O)NC(=S)NC2=O)C=C(C)N1CCc1ccccc1,-29.0,98.3
O=C(CN1CCN(Cc2ccc3c(c2)OCO3)CC1)N(c1ccccc1)C1CCS(=O)(=O)C1 (stereo not given),-6.4,/

The closing six records of the part before lead into the next:
Molecule,HCMV UL50-53 inh,GIV Gai3 FP
Cc1ccc(Cn2c(SCc3cccc(C)c3)nc3cccnc32)cc1,22.2*,105.9
Cc1ccc2nc3[nH]c(=O)[nH]c(=O)c3nc2c1,/,102.6
O=C(Nc1ccc2nc3c(=O)[nH]c(=O)[nH]c3nc2c1)C(F)(F)F,/,-15.9*
CC1=CC(=C2C(=O)NC(=O)NC2=O)C=C(C)N1c1ccccc1,-4.1,-4.9*
CC1=CC(=C2C(=O)NC(=S)NC2=O)C=C(C)N1CCc1ccccc1,-29.0,98.3
O=C(CN1CCN(Cc2ccc3c(c2)OCO3)CC1)N(c1ccccc1)C1CCS(=O)(=O)C1 (stereo not given),-6.4,/
CCOC(=O)c1ccc2c(c1)N(CCCS(=O)(=O)O)/C(=C/C=C/c1n(CCCS(=O)(=O)[O-])c3cc(C(=O)OCC)ccc3[n+]1CC)N2CC,/,-62.4*
CCOC(=O)c1ccc2c(c1)n(CCCS(=O)(=O)[O-])c(/C=C/C=C1\N(CC)c3cc(Cl)c(Cl)cc3N1CCOc1ccccc1)[n+]2CC,/,112.0
COC(=O)/C=C1\NC(=O)CS1,-9.8,/
O=C(Nc1ccccc1C(=O)NCCN1CCOCC1)C1=CSCCO1,-6.0,105.5
N#Cc1c(N2CCCC2)nc(N)c2c(N)nc(N3CCCC3)cc12,96.9*,/
Cc1cc(C)c(C#N)c(N2CCCC2)n1,0.5,109.0
Cc1ccc(-c2noc(Cc3nc(-c4cc(C)ccc4C)cs3)n2)cc1,/,100.9
Cc1ccc2[nH]c3c(=O)n(CC(=O)N(C)Cc4ccccc4)ncc3c2c1,/,103.9
COc1ccc(-c2nc3cc(F)c(Cl)cc3nc2-c2ccc(OC)cc2)cc1,/,102.2
CC(C)C(=O)Nc1ccc(N(C)C)cc1C(=O)O,51.4*,98.6
CC(C)C(=O)Nc1ccc(Cl)cc1C(=O)O,-14.0,99.5
CC(=O)NCCCc1[nH]n(-c2ccccc2)c(=O)c1NC(=O)c1ccccc1,65.0*,/
CCCc1[nH]n(-c2ccccc2)c(=O)c1C(C)=NCCOC,2.0,106.9
CN1C(=O)CCc2cc(NC(=O)C3CCCO3)ccc21 (stereo not given),/,96.5
CS(=O)(=N/C=C(\C#N)S(=O)(=O)c1ccc(C(F)(F)F)cn1)c1ccsc1 (stereo not given),-22.7,94.7

New compounds follow.
Results follow in this order: HCMV UL50-53 inh, GIV Gai3 FP
CCCN1C(=S)N(CCO)C(=O)/C1=C/C=C1/Oc2ccccc2N1CCC(=O)O
  -116.1, -20.2*
CCN1/C(=C/C=C2/C(=O)N(C)C(=S)N2C)Oc2ccccc21
  -10.2, 252.0
CC(C)(C)C(=O)Nc1ccc2c(c1)C(=O)C(=O)c1ccccc1-2
  121.9*, /
CC(C)(C)C(=O)Nc1ccc(-c2nc3ccccc3s2)c(O)c1
  -12.6, /
CCCn1c(O)c(C=Nc2ccccc2C(=O)NC2CC2)c(=O)[nH]c1=S
  -7.3, /
CCCCCCCCN1/C(=C/C=C/c2n(CCCCCCCC)c3cc(Cl)c(Cl)cc3[n+]2CCCCC)N(CCCCC)c2cc(Cl)c(Cl)cc21
  /, 144.5
C=CCN1/C(=C\C=C\c2n(CC=C)c3cc(Cl)c(Cl)cc3[n+]2CCCCCCCC)N(CCCCCCCC)c2cc(Cl)c(Cl)cc21
  /, -62.4*
O=C(NC1CCS(=O)(=O)C1)c1sc2ccccc2c1Cl (stereo not given)
  -32.2, 96.4
CCNc1cccc2c1C(=O)N(C)C2=O
  -67.5, 6.2*
CN1C(=O)c2cccc(NC(=O)CSc3ccc(F)cc3)c2C1=O
  -35.4, 101.4
OC(c1ccc(Cl)cc1)C(O)c1nc2ccccc2[nH]1 (stereo not given)
  -20.3, /
OCC(O)C(O)C(O)C(O)c1nc2ccccc2[nH]1 (stereo not given)
  37.2*, /
COc1ccc(-c2nc(Nc3ccc4c(c3)OCCO4)c3ccccc3n2)cc1OC
  33.6*, 100.7
COc1ccc(-c2nc(Nc3ccc(OC)c(Cl)c3)c3ccccc3n2)cc1
  1.4, 111.3
COc1ccc(O)c(C2Nc3ccccc3-n3c(-c4ccccc4)c4c(=O)n(C)c(=O)n(C)c4c32)c1 (stereo not given)
  -5.3, 100.7
CC(=O)N=C(NC(C)=O)c1ccc(N2CCOCC2)cc1
  -64.8, /
COc1ccc(NC(=O)CN2C(=O)CSc3ccc(S(=O)(=O)N4CCCC4)cc32)cc1OC
  /, 107.8
C=Cc1c(C)/c2[n-]/c1=C\c1[n-]c(c(CC)c1C)/C=c1\[n-]c3c(c1C)C(=O)C(C(=O)[O-])C=3c1[n-]c(c(C)c1CCC(=O)[O-])\C=2.[Cu].[Na+].[Na+] (stereo not given)
  52.5*, /
COc1ccc(-c2cnn3c(C)cc(C)nc23)cc1OC
  /, 104.8
Cc1cc2nc3c(=O)[nH]c(=O)nc-3n(C(O)C(O)C(O)C(O)CO)c2cc1C (stereo not given)
  -131.5, -74.4*

Next section:
Results follow in this order: HCMV UL50-53 inh, GIV Gai3 FP
Cc1cc2nc3c(=O)[nH]c(=O)nc-3n(C[C@@H](O)[C@@H](O)[C@@H](O)COP(=O)(O)O)c2cc1C
  -166.3, /
Cc1ccc(S(=O)(=O)N(CCO)Cc2ccccc2)cc1
  -13.7, 99.3
CCOc1cc(C=C2C(=O)N(C)C(=O)N(C)C2=O)ccc1OCCOCCOc1ccc(C)cc1
  10.4, 105.0
CCOc1cc(C=C2C(=O)N(C)C(=O)N(C)C2=O)ccc1OCCOc1ccc([N+](=O)[O-])cc1
  55.0*, 103.1
CCN(CC)C/C=C/c1c(F)c(F)c(NCCOC)c(F)c1F
  -50.6, 102.2
O=C(Nc1cccnc1)c1ccc(COCC(F)(F)F)cc1
  /, 104.3
COC(=O)c1sccc1N1Cc2ccncc2C1=O
  -29.6, 104.9
O=C1c2cnccc2CN1c1cc(F)ccc1F
  34.9*, 108.0
CC(=Nc1cccc(O)c1)c1sc2ccccc2c1O
  -65.5, 174.8
CC(=Nc1cccc(Br)c1)c1sc2ccccc2c1O
  -31.9, 56.4*
O=c1oc2ccccc2cc1-c1nc(-c2ccc3ccccc3c2)cs1
  /, 110.6
Cc1ccccc1CN(C)C(C)C(=O)NCc1ccccc1 (stereo not given)
  -14.9, /
COc1cc(CN2CCCC2c2cc(C(C)C)on2)ccc1OCC(C)C (stereo not given)
  /, 98.8
O=C(NC1=NCCS1)c1c(-c2ccc(F)cc2)nc2n1CCS2(=O)=O
  -25.6, 104.2
CCCc1cc(=O)[nH]c(Nc2ccccc2)n1
  76.7*, 107.4
CCc1cc(=O)[nH]c(Nc2ccccc2)n1
  -7.4, 110.4
COC(=O)CC1SC(=O)NC1=Nc1ccc(C)cc1 (stereo not given)
  0.0, /
COC(=O)CC1SC(=O)NC1=S (stereo not given)
  -72.5, -68.4*
Cc1cc2ccccc2n1-c1ccc(C(=O)NC2CCCC2)s1
  56.4*, 107.6
COC(=O)c1ccc(-n2c(C)cc3ccccc32)s1
  -7.3, 105.7
O=c1[nH]c2cc(Br)cnc2[nH]1
  76.9*, 102.0
O=c1[nH]c2ccccc2[nH]1
  -29.0, /
CCCNS(=O)(=O)c1ccc(-c2cc(C(F)(F)F)no2)s1
  -28.1, 96.5

Screens: PubChem, ICCB-Longwood Screening Facility, Harvard Medical School
